According to patent publication US11718613B2:
pIC50: −log10 of the molar value.

Chains of the proteins cited; added tags and fusions are not shown.
UniProt Q07817, whole entry: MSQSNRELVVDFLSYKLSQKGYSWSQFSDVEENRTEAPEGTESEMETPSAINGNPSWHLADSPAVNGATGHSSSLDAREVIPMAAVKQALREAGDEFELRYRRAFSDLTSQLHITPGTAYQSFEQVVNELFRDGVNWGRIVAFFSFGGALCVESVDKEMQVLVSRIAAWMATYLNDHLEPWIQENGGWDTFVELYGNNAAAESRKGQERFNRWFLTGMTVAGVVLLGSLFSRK
UniProt P10415, whole entry: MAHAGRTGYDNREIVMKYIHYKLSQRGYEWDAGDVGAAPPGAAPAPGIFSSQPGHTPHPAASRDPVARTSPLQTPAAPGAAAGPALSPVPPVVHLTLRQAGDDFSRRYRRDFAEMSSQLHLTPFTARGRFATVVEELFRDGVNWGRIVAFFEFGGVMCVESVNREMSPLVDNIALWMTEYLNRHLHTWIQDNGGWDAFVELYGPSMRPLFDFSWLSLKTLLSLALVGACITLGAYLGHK

Key:
[1] = molecular target: Bcl-xL (Homo sapiens (Human), UniProt Q07817); test: Fluorescence polarization competitive binding assay, Bcl-xL; details: FP competition with Flu-BAK probe; read-out: Inhibitory activity IC50 Bcl-xL
[2] = molecular target: Bcl-2 (Homo sapiens (Human), UniProt P10415); test: Fluorescence polarization competitive binding assay, Bcl-2; details: FP competition with Flu-BIM probe; read-out: Inhibitory activity IC50 Bcl-2

| Substance | pIC50 [1] | pIC50 [2] |
| --- | --- | --- |
| 2-((1H-pyrrolo[2,3-b]pyridin-5-yl)oxy)-4-(1-((6- (4-chlorophenyl)-2-oxaspiro[3.5]non-6-en-7- yl)methyl)-1,2,3,6-tetrahydropyridin-4-yl)-N-((3- nitro-4-(((tetrahydro-2H-pyran-4- yl)methyl)amino)phenyl)sulfonyl)benzamide [compound 9] | 7.69 | 8.72 |
| (R)-N-((4-(((1,4-dioxan-2-yl)methyl)amino)-3- nitrophenyl)sulfonyl)-2-((1H-pyrrolo[2,3- b]pyridin-5-yl)oxy)-4-(1-((6-(4-chlorophenyl)-2- oxaspiro[3.5]non-6-en-7-yl)methyl)-1,2,3,6- tetrahydropyridin-4-yl)benzamide [Cpd. No. 5] |  | 8.68 |
